GIV-Gai inh = GIV-Galpha-i interaction inhibition; AID 1224905; 210,000 tested, 0.42% active; Galpha-i3/FITC-GIV peptide fluorescence polarization, 90 min; stronger effect = lower value; scaled: aluminum fluoride 0%, vehicle 100%; percent of control (FP), % (concentration not given with the values);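 active = replicate mean at 85% of control or lower, very high polarization wells dropped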;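 also: wells of about 15 µL received 100 nL stock; the first replicate is given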
GIV Gai FP conf = GIV-Galpha-i3 inhibition, FP confirmation | 580 tested, 38% active | AID 1259350 | shares compounds with GIV-Gai inh | FITC-GIV peptide binding to Galphai3, fluorescence polarization; active compounds read low | fluorescence polarization, mP at 100 µM;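 active = inhibition score of 15 or more, meaning 100 minus mean polarization as percent of control over three replicates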;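 note: lower mP means peptide displaced from Galphai3 so more inhibition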
GIV-Gai AS conf = confirmation of inhibitors of GIV binding to human Galpha-i3. shares compounds with GIV-Gai inh. AlphaScreen Galphai3-GIV binding, purified proteins, 90 min; active compounds read low. AlphaScreen counts at 100 µM. 580 tested, 39% active;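 active = inhibition score at or above a set limit, where the score is 100 minus the three-replicate mean percent of control signal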
* marks the source's active call; other numbers are inactive results. This excerpt belongs to a sample that is enriched for hits.

SMILES	GIV-Gai inh	others
N#C/C(=C/c1ccc(-c2cccc(C(F)(F)F)c2)o1)c1cccc(F)c1	103.5
COc1ccc(OC(=O)c2ccc3nonc3c2)cc1	100.6
CCOc1cc(C2C(C(=O)OC)=CN(Cc3ccc(OC)cc3)C=C2C(=O)OC)cc(Br)c1O	99.3
CCOC(=O)Cn1nc2c(-c3nc(-c4ccc(Cl)cc4)no3)cccn2c1=O	106.0
O=c1cc(Cn2nc3c(-c4nc(-c5ccccc5)no4)cccn3c2=O)nc2ccccn12	89.6	GIV Gai FP conf=42.4*;GIV-Gai AS conf=27964
Cc1ccc(-c2noc(-c3cccn4c(=O)c5ccccc5nc34)n2)cc1	119.8
COc1cc(Cl)c(C)cc1Nc1nc2ccccc2nc1NS(=O)(=O)c1ccccc1	158.2
COc1ccc2nc(NS(=O)(=O)c3ccc(C)cc3)c(Nc3cc(Cl)ccc3OC)nc2c1	229.6
COc1ccc(Nc2nc3ccccc3nc2NS(=O)(=O)c2ccc(C)cc2)c(OC)c1	38.8*	GIV Gai FP conf=81;GIV-Gai AS conf=33344
CNC(=O)C1OC2OC(C)(C)OC2C2OC(C)(C)OC12 (stereo not given)	102.2
CCCCN(CC)c1ncc(NS(=O)(=O)CC)cc1C(=O)O	109.9
CCCN(CCC)c1ncc(NS(=O)(=O)CC)cc1C(=O)O	112.1

Structural class, the compounds so far containing a halogen.
SMILES	GIV-Gai inh	others
N#C/C(=C/c1ccc(-c2cccc(C(F)(F)F)c2)o1)c1cccc(F)c1	103.5
CCOc1cc(C2C(C(=O)OC)=CN(Cc3ccc(OC)cc3)C=C2C(=O)OC)cc(Br)c1O	99.3
CCOC(=O)Cn1nc2c(-c3nc(-c4ccc(Cl)cc4)no3)cccn2c1=O	106.0
COc1cc(Cl)c(C)cc1Nc1nc2ccccc2nc1NS(=O)(=O)c1ccccc1	158.2
COc1ccc2nc(NS(=O)(=O)c3ccc(C)cc3)c(Nc3cc(Cl)ccc3OC)nc2c1	229.6

(more compounds)
SMILES	GIV-Gai inh	others
CCN(CCN(C)C)c1ncc(NS(=O)(=O)CC)cc1C(=O)O	70.8*	GIV Gai FP conf=34.2*;GIV-Gai AS conf=21018*
COC(=O)c1ccc(NC(=O)CSc2nnc(NC(=O)NC3CCCCC3)s2)cc1	102.4
O=C(CN1C(=O)CSc2ccc(C(=O)N3CCCC3)cc21)N1CCN(c2ncccn2)CC1	108.2
O=C(Nc1nccs1)C(Cc1ccccc1)n1cccc1 (stereo not given)	96.9
CCN(CC)c1ccc2cc(S(=O)(=O)c3ccc(F)c(Cl)c3)c(=O)oc2c1	56.2*	GIV Gai FP conf=70.6;GIV-Gai AS conf=47488
Cc1ccc(S(=O)(=O)c2cc3ccccc3oc2=O)cc1	98.1
COc1ccc2cc(S(=O)(=O)c3ccccc3F)c(=O)oc2c1	100.2
CCNc1ccc2c(cc1=O)[C@@H](NC)CCc1cc(OC)c(OC)c(OC)c1-2	110.7
CCOc1ccc(CN2C(=O)c3ccccc3Sc3ccc(C(=O)NC(=O)C4CCNCC4)cc32)cc1	98.6
Cc1ccccc1-c1noc(-c2ccc[nH]c2=O)n1	148.5
CCOC(=O)C1CCCN(S(=O)(=O)c2cc(-c3ccc(=O)[nH]n3)cc(C)c2C)C1 (stereo not given)	98.5
COc1ccccc1-n1nnnc1SCC(=O)NC1CCCC1	103.0

Reprinted at random: 2 compounds from above, in no set order.
SMILES	GIV-Gai inh	others
Cc1ccccc1-c1noc(-c2ccc[nH]c2=O)n1	148.5
CCN(CCN(C)C)c1ncc(NS(=O)(=O)CC)cc1C(=O)O	70.8*	GIV Gai FP conf=34.2*;GIV-Gai AS conf=21018*

Next entries:
SMILES	GIV-Gai inh	others
Cn1nnnc1SCC(=O)NC1Cc2ccccc2C1	87.5	GIV Gai FP conf=69.4;GIV-Gai AS conf=47713
O=C(O)CSCC(=O)NC1Cc2ccccc2C1	99.3
C/C(=N\N1C(=O)c2ccccc2C1=O)c1ccccc1O	98.4
C/C(=N/NC(=O)C(F)(F)F)c1cccs1	103.5
C/C(=N\NC(=O)C(F)(F)F)c1ccccc1O	93.5	GIV Gai FP conf=72;GIV-Gai AS conf=56622
CCOC(=O)C(C)Oc1cc(OC(C)C(=O)OCC)c2c(=O)cc(-c3ccccc3)oc2c1 (stereo not given)	108.0
CCOC(=O)Cn1cnc2sc(C(=O)OCC)c(C)c2c1=O	99.3
O=c1[nH]c2c(s1)C1c3ccccc3OC3CCCC(S2)C31 (stereo not given)	71.7*	GIV Gai FP conf=39.8*;GIV-Gai AS conf=30587
O=C1Oc2ccccc2C2c3sc(=O)[nH]c3SC(c3ccccc3)C12 (stereo not given)	112.2
O=C1Oc2ccccc2C2c3sc(=O)[nH]c3SC(c3cccs3)C12 (stereo not given)	96.0
Cc1ccc(-c2ccc(-n3nc(C)c(S(=O)(=O)NC4CC4)c3C)nn2)cc1	104.8
CC1(C)C2CCC1(C)C(NCc1ccccc1)C2 (stereo not given)	110.1
O=C(NCCn1c(-c2ccccc2)nc2cccnc21)c1ccc(Br)cc1	107.2
Cc1[nH]n(-c2ccccc2)c(=O)c1C(c1ccc(OC(=O)c2ccccc2F)cc1)c1c(C)[nH]n(-c2ccccc2)c1=O	104.9
Cc1[nH]n(-c2ccccc2)c(=O)c1C(c1ccccc1[N+](=O)[O-])c1c(C)[nH]n(-c2ccccc2)c1=O	100.1
Cc1[nH]n(-c2ccccc2)c(=O)c1C(c1cc(Br)ccc1O)c1c(C)[nH]n(-c2ccccc2)c1=O	105.8
CCOc1ccc(C(c2c(C)[nH]n(-c3ccccc3)c2=O)c2c(C)[nH]n(-c3ccccc3)c2=O)cc1	100.9
Cc1[nH]n(-c2ccccc2)c(=O)c1C(c1ccccc1F)c1c(C)[nH]n(-c2ccccc2)c1=O	87.8
CCCCCCOc1ccc(C(c2c(C)[nH]n(-c3ccccc3)c2=O)c2c(C)[nH]n(-c3ccccc3)c2=O)cc1	62.3*	GIV Gai FP conf=66.9;GIV-Gai AS conf=11116*
Cc1ccc(COc2ccc(C(c3c(C)[nH]n(-c4ccccc4)c3=O)c3c(C)[nH]n(-c4ccccc4)c3=O)cc2)cc1	114.5
Cc1[nH]n(-c2ccccc2)c(=O)c1C(c1cc([N+](=O)[O-])ccc1O)c1c(C)[nH]n(-c2ccccc2)c1=O	76.3*	GIV Gai FP conf=64.3;GIV-Gai AS conf=23681*
Cc1[nH]n(-c2ccccc2)c(=O)c1C(c1ccc(C#N)cc1)c1c(C)[nH]n(-c2ccccc2)c1=O	71.1*	GIV Gai FP conf=66;GIV-Gai AS conf=33414
COc1ccccc1-c1cc2c(SCC(=O)Nc3ccc(C)cc3)nccn2n1	107.4
Cc1[nH]c(C)c(S(=O)(=O)N2CCC(C(=O)Nc3ccc4c(c3)OCO4)CC2)c1C(=O)N1CCCCC1	108.0
CCCCn1c(CNC(=O)c2ccc([N+](=O)[O-])cc2)nnc1SCC(=O)Nc1sc2c(c1C(=O)OCC)CCC2	103.3
O=C(COc1ccc(S(=O)(=O)N2CCCc3ccccc32)cc1)Nc1ccc2c(c1)OCO2	99.8
Cc1nn(-c2nc3ccccc3[nH]2)c2c1C(c1cccnc1)CC(=O)N2 (stereo not given)	108.6
COc1ccc(/C=C2\C=C(c3ccccc3)N(c3cccc(Br)c3)C2=O)cc1Br	101.2
CCc1nc(-c2csc(S(=O)(=O)N3CCC(C(=O)NC(C)C)CC3)c2)no1	111.6
Cc1ccc(S(=O)(=O)N2CN(CC3CCCO3)c3nc4ccccc4nc32)cc1C (stereo not given)	102.8
CN(CCC#N)C(=O)C1CCN(S(=O)(=O)c2ccc(-n3cnnn3)cc2)CC1	106.6
Cc1cccc(NC(=O)CN2C(=O)c3cccnc3Sc3ccccc32)c1	111.3
COc1ccccc1OCCOc1ccc(Cl)cc1-c1nc2sc3c(c2c(=O)[nH]1)CCCC3	104.6
CC(=Nc1ccccc1Cl)c1sc2ccccc2c1O	90.3
CC(=Nc1ccccc1Br)c1sc2ccccc2c1O	71.5*	GIV Gai FP conf=62.2;GIV-Gai AS conf=63874
CC(=Nc1ccccc1O)c1sc2ccccc2c1O	127.4
Cc1cc(C2CCCN2Cc2ccc(C)c(C)c2)no1 (stereo not given)	105.6
CSc1nnc2c(n1)OC=Nc1ccc(Cl)cc1-2	99.0
Nc1ccc2c(c1)C(=O)N(CCCC(=O)O)C2=O	102.0
Nc1ccc2c(c1)C(=O)N(CCO)C2=O	89.6	GIV Gai FP conf=63.4;GIV-Gai AS conf=44198
Nc1ccc2c(c1)C(=O)N(CCCCN1C(=O)c3ccc(N)cc3C1=O)C2=O	108.6
O=S(=O)(c1cc(-c2noc(C3CC3)n2)cs1)N1CCOCC1	97.7
COc1cc2[nH]c(=O)n(Cc3ccc(C(=O)Nc4ccc(F)cc4)cc3)c(=O)c2cc1OC	100.0
O=C(Nc1ccc(O)c(C(=O)O)c1)c1ccc(Br)cc1	98.0

High-throughput results (PubChem)
